Experimental data: publication PMC9305538 (Chembiochem, 2022)

Legend:
[1] = test system: NC(=O)c1ccc[n+]([C@@H]2O[C@H](COP(=O)([O-])OP(=O)(O)OC[C@H]3O[C@@H](n4cnc5c(N)ncnc54)[C@H](O)[C@@H]3O)[C@@H](O)[C@H]2O)c1; assay: purified protein; details: 125 mM formate, 50 mM phosphate pH 7, 25 °C, apparent
O=CO = assay: purified protein; details: 1 mM NAD+, 50 mM phosphate pH 7, 25 °C, apparent

## FDHC23S ([Candida] boidinii; C23S)
[1]
  Km: 50 ± 20 µM
  kcat: 1.93 ± 0.12 s⁻¹
O=CO
  Km: 4230 ± 70 µM
  kcat: 1.78 s⁻¹
  kcat/Km: 420 M⁻¹ s⁻¹
